Reference: PubChem BioAssay AID602163 (The Scripps Research Institute Molecular Screening Center, 2012)
The entries are a selection whose mix differs from that of the whole data set. The source made the active and inactive calls. No stated cut-off is given here; in the data, active means activation above about 7.5%; inactive means the rest.

test system: Methionine sulfoxide reductase A (Bos taurus); experiment: activation of methionine sulfoxide reductase A – biochemical, absorbance, bovine, HTS, primary screen (AID 602163); details: purified bovine MsrA, absorbance read-out; at 10.6 µM; active compounds read high;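 further: 0% = vehicle and 100% = reference activator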

| Structure (SMILES) | activation |
| --- | --- |
| CCC(=O)N(c1ccccc1)C1(COC)CCN(CCn2nnn(CC)c2=O)CC1 | inactive: -0.6% |
| CCC(=O)N(c1ccccc1)C1(COC)CCN(CCc2cccs2)CC1 | inactive: -5.93% |
